The target of this experiment is T1, eIF4E (Homo sapiens, UniProt P06730).
T1 construct: HNAVIpeptTEVeIF4E 32-217(Biotinylated)
As to the kind of experiment: Binding affinities to eIF4E using surface plasmon resonance (SPR).

Amino acid sequences for entries named in this document (tags omitted). Residues count along the entry.
UniProt P06730, 32-217: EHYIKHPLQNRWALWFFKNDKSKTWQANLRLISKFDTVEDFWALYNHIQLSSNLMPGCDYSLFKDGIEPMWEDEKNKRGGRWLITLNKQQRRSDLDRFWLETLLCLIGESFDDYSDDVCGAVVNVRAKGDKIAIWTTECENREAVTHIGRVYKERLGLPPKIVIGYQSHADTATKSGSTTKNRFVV

In the case of `Cn1c[n+]([C@@H]2O[C@H](COP(=O)(O)OP(=O)([O-])OP(=O)(O)OC[C@H]3O[C@@H](n4cnc5c(=O)[nH]c(N)nc54)[C@H](O)[C@@H]3O)[C@@H](O)[C@H]2O)c2nc(N)[nH]c(=O)c21` [Cap0 (i.e., m7GpppG), m7GpppG], the Kd (SPR value repeated in Table 4) is 2000 nM and the affinity (SPR, Biacore 3000, captured biotinylated eIF4E, Table 3), expressed as Kd, was 2000 nM. The same compound registered a koff (SPR, off-rate from dissociation phase, Table 3) of 0.8 s⁻¹.

Broadly, the Kd is the constant that tells how readily two partners part at equilibrium. Read a high Kd as a looser complex. A word on the koff: it is the first-order rate constant of dissociation. A higher koff goes with a short-lived complex.

Source of the values: US10428106B2, “Phosphate replacement mRNA cap analogs” (ModernaTX, Inc., priority 2015, dated 2019).
